± gives the uncertainty stated by the source.
B1: Tyrosine-protein kinase ABL1, residues 64 to 120; numbered along this chain, P00519 (parent)
chain: NLFVALYDFVASGDNTLSITKGEKLRVLGYNHNGEWCEAQTKNGQGWVPSNYITPVN

Variants of: B1
Experiment: abundance fitness (aPCA) (normalised: wild type 0, dead -1); higher = more abundant; growth selection in yeast, the domain comes from the species named
Conditions: Homo sapiens

Question: For NLYVALYDFVASGDNTLSITKGEKLRVLGYNHNGEWCEAQTKNGQGWVPSNYITPVN [F3Y], which abundance fitness is on record?
Answer: -0.492 ± 0.24

Question: For NLTVALYDFVASGDNTLSITKGEKLRVLGYNHNGEWCEAQTKNGQGWVPSNYITPVN [F3T], which abundance fitness is on record?
Answer: -0.404 ± 0.085

Question: Which abundance fitness does the source give for NLSVALYDFVASGDNTLSITKGEKLRVLGYNHNGEWCEAQTKNGQGWVPSNYITPVN [F3S] here?
Answer: -0.299 ± 0.082

Question: Which abundance fitness does the source give for NLWVALYDFVASGDNTLSITKGEKLRVLGYNHNGEWCEAQTKNGQGWVPSNYITPVN [F3W] here?
Answer: -0.191 ± 0.085

Question: Which abundance fitness does the source give for NLMVALYDFVASGDNTLSITKGEKLRVLGYNHNGEWCEAQTKNGQGWVPSNYITPVN [F3M] here?
Answer: -0.342 ± 0.071

Question: For NLPVALYDFVASGDNTLSITKGEKLRVLGYNHNGEWCEAQTKNGQGWVPSNYITPVN [F3P], which abundance fitness is on record?
Answer: -1.14 ± 0.14

Question: With NLNVALYDFVASGDNTLSITKGEKLRVLGYNHNGEWCEAQTKNGQGWVPSNYITPVN [F3N] as the variant, how does the abundance fitness read?
Answer: -0.286 ± 0.16

Question: With NLVVALYDFVASGDNTLSITKGEKLRVLGYNHNGEWCEAQTKNGQGWVPSNYITPVN [F3V] as the variant, how does the abundance fitness read?
Answer: -0.206 ± 0.07

Question: Which abundance fitness does the source give for NLKVALYDFVASGDNTLSITKGEKLRVLGYNHNGEWCEAQTKNGQGWVPSNYITPVN [F3K] here?
Answer: -0.224 ± 0.12

Question: With NLHVALYDFVASGDNTLSITKGEKLRVLGYNHNGEWCEAQTKNGQGWVPSNYITPVN [F3H] as the variant, how does the abundance fitness read?
Answer: -0.289 ± 0.06

Question: Which abundance fitness does the source give for NLLVALYDFVASGDNTLSITKGEKLRVLGYNHNGEWCEAQTKNGQGWVPSNYITPVN [F3L] here?
Answer: -0.787 ± 0.11

Question: Which abundance fitness does the source give for NLGVALYDFVASGDNTLSITKGEKLRVLGYNHNGEWCEAQTKNGQGWVPSNYITPVN [F3G] here?
Answer: -0.341 ± 0.097

Question: For NLRVALYDFVASGDNTLSITKGEKLRVLGYNHNGEWCEAQTKNGQGWVPSNYITPVN [F3R], which abundance fitness is on record?
Answer: -0.287 ± 0.047

Question: With NLAVALYDFVASGDNTLSITKGEKLRVLGYNHNGEWCEAQTKNGQGWVPSNYITPVN [F3A] as the variant, how does the abundance fitness read?
Answer: -0.296 ± 0.069

Question: With SLFVALYDFVASGDNTLSITKGEKLRVLGYNHNGEWCEAQTKNGQGWVPSNYITPVN [N1S] as the variant, how does the abundance fitness read?
Answer: -0.63 ± 0.21

Question: With RLFVALYDFVASGDNTLSITKGEKLRVLGYNHNGEWCEAQTKNGQGWVPSNYITPVN [N1R] as the variant, how does the abundance fitness read?
Answer: -0.138 ± 0.14

Question: For MLFVALYDFVASGDNTLSITKGEKLRVLGYNHNGEWCEAQTKNGQGWVPSNYITPVN [N1M], which abundance fitness is on record?
Answer: -0.541 ± 0.16

Question: Which abundance fitness does the source give for DLFVALYDFVASGDNTLSITKGEKLRVLGYNHNGEWCEAQTKNGQGWVPSNYITPVN [N1D] here?
Answer: -0.174 ± 0.38

Question: With KLFVALYDFVASGDNTLSITKGEKLRVLGYNHNGEWCEAQTKNGQGWVPSNYITPVN [N1K] as the variant, how does the abundance fitness read?
Answer: -0.234 ± 0.14

Question: For GLFVALYDFVASGDNTLSITKGEKLRVLGYNHNGEWCEAQTKNGQGWVPSNYITPVN [N1G], which abundance fitness is on record?
Answer: 0.307 ± 0.18

Question: For YLFVALYDFVASGDNTLSITKGEKLRVLGYNHNGEWCEAQTKNGQGWVPSNYITPVN [N1Y], which abundance fitness is on record?
Answer: 0.467 ± 0.17

Question: For WLFVALYDFVASGDNTLSITKGEKLRVLGYNHNGEWCEAQTKNGQGWVPSNYITPVN [N1W], which abundance fitness is on record?
Answer: -0.581 ± 0.14

Question: Which abundance fitness does the source give for QLFVALYDFVASGDNTLSITKGEKLRVLGYNHNGEWCEAQTKNGQGWVPSNYITPVN [N1Q] here?
Answer: -0.205 ± 0.27

Question: Which abundance fitness does the source give for NDFVALYDFVASGDNTLSITKGEKLRVLGYNHNGEWCEAQTKNGQGWVPSNYITPVN [L2D] here?
Answer: -0.117 ± 0.14

Question: For NWFVALYDFVASGDNTLSITKGEKLRVLGYNHNGEWCEAQTKNGQGWVPSNYITPVN [L2W], which abundance fitness is on record?
Answer: -0.029 ± 0.078

Question: With NCFVALYDFVASGDNTLSITKGEKLRVLGYNHNGEWCEAQTKNGQGWVPSNYITPVN [L2C] as the variant, how does the abundance fitness read?
Answer: -0.063 ± 0.078

Question: With NPFVALYDFVASGDNTLSITKGEKLRVLGYNHNGEWCEAQTKNGQGWVPSNYITPVN [L2P] as the variant, how does the abundance fitness read?
Answer: -0.522 ± 0.15

Question: Which abundance fitness does the source give for NSFVALYDFVASGDNTLSITKGEKLRVLGYNHNGEWCEAQTKNGQGWVPSNYITPVN [L2S] here?
Answer: -0.198 ± 0.12

Question: For NVFVALYDFVASGDNTLSITKGEKLRVLGYNHNGEWCEAQTKNGQGWVPSNYITPVN [L2V], which abundance fitness is on record?
Answer: -0.486 ± 0.057

Question: For NQFVALYDFVASGDNTLSITKGEKLRVLGYNHNGEWCEAQTKNGQGWVPSNYITPVN [L2Q], which abundance fitness is on record?
Answer: -0.153 ± 0.11

Question: For NHFVALYDFVASGDNTLSITKGEKLRVLGYNHNGEWCEAQTKNGQGWVPSNYITPVN [L2H], which abundance fitness is on record?
Answer: -0.513 ± 0.29

Question: Which abundance fitness does the source give for NKFVALYDFVASGDNTLSITKGEKLRVLGYNHNGEWCEAQTKNGQGWVPSNYITPVN [L2K] here?
Answer: 0.251 ± 0.14

Question: For NRFVALYDFVASGDNTLSITKGEKLRVLGYNHNGEWCEAQTKNGQGWVPSNYITPVN [L2R], which abundance fitness is on record?
Answer: -0.037 ± 0.069

Question: With NMFVALYDFVASGDNTLSITKGEKLRVLGYNHNGEWCEAQTKNGQGWVPSNYITPVN [L2M] as the variant, how does the abundance fitness read?
Answer: 0.128 ± 0.076

Question: For NIFVALYDFVASGDNTLSITKGEKLRVLGYNHNGEWCEAQTKNGQGWVPSNYITPVN [L2I], which abundance fitness is on record?
Answer: 0.291 ± 0.29

Question: For NEFVALYDFVASGDNTLSITKGEKLRVLGYNHNGEWCEAQTKNGQGWVPSNYITPVN [L2E], which abundance fitness is on record?
Answer: -0.241 ± 0.043

Question: With NYFVALYDFVASGDNTLSITKGEKLRVLGYNHNGEWCEAQTKNGQGWVPSNYITPVN [L2Y] as the variant, how does the abundance fitness read?
Answer: -0.258 ± 0.35

Question: For NAFVALYDFVASGDNTLSITKGEKLRVLGYNHNGEWCEAQTKNGQGWVPSNYITPVN [L2A], which abundance fitness is on record?
Answer: -0.603 ± 0.16

Question: Which abundance fitness does the source give for NGFVALYDFVASGDNTLSITKGEKLRVLGYNHNGEWCEAQTKNGQGWVPSNYITPVN [L2G] here?
Answer: -0.352 ± 0.05

Question: For NNFVALYDFVASGDNTLSITKGEKLRVLGYNHNGEWCEAQTKNGQGWVPSNYITPVN [L2N], which abundance fitness is on record?
Answer: 0.348 ± 0.22

Question: For NFFVALYDFVASGDNTLSITKGEKLRVLGYNHNGEWCEAQTKNGQGWVPSNYITPVN [L2F], which abundance fitness is on record?
Answer: 0.226 ± 0.14

Question: For NTFVALYDFVASGDNTLSITKGEKLRVLGYNHNGEWCEAQTKNGQGWVPSNYITPVN [L2T], which abundance fitness is on record?
Answer: -0.079 ± 0.052

Question: With NLFDALYDFVASGDNTLSITKGEKLRVLGYNHNGEWCEAQTKNGQGWVPSNYITPVN [V4D] as the variant, how does the abundance fitness read?
Answer: -0.407 ± 0.22

Question: With NLFAALYDFVASGDNTLSITKGEKLRVLGYNHNGEWCEAQTKNGQGWVPSNYITPVN [V4A] as the variant, how does the abundance fitness read?
Answer: -0.178 ± 0.1

Question: With NLFCALYDFVASGDNTLSITKGEKLRVLGYNHNGEWCEAQTKNGQGWVPSNYITPVN [V4C] as the variant, how does the abundance fitness read?
Answer: -0.271 ± 0.15

Question: With NLFFALYDFVASGDNTLSITKGEKLRVLGYNHNGEWCEAQTKNGQGWVPSNYITPVN [V4F] as the variant, how does the abundance fitness read?
Answer: -0.283 ± 0.16

Question: With NLFEALYDFVASGDNTLSITKGEKLRVLGYNHNGEWCEAQTKNGQGWVPSNYITPVN [V4E] as the variant, how does the abundance fitness read?
Answer: -0.034 ± 0.093
